Source: PubChem
The list is not random: actives were taken first. Their share in the collection is about 2.1%.
INS-1E GSIS act: GLuc luminescence reporter in INS-1E cells, primary screen for activators of glucose-dependent secretion of insulin; INS-1E GLuc reporter insulin secretion, 2-3 h; activation, % at 16.6 µM; 370,000 tested, 0.61% active; AID 743287, 2014;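 active = lowest replicate activation of at least 40%, so every replicate reaches that level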
Yeast UUG start: modulators of yeast start codon fidelity, primary screen, whole organism, S. cerevisiae, single point, plate reader; S. cerevisiae UUG-firefly luciferase reporter, luminescence/redox ratio; activity score, % at 18.7 µM; 0.13% of 350,000 active; AID 602363, 2012;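 active = replicate mean at a twofold rise or more, about +100% in these data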;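 also: firefly luciferase made from a UUG start codon reports start codon fidelity; reporter light over untreated wells divided by growth signal over untreated wells; some hits fall short of that in this replicate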
PDI turbidity: inhibitors of human PDI, primary screen, biochemical, turbidity, single point, plate reader; Protein disulfide-isomerase (Homo sapiens), P07237; PDI insulin aggregation turbidity, A650, 90 min; inhibition, % at 10 µM; 350,000 tested, 0.052% active; AID 588391, 2011;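 active = mean inhibition across replicates of 30% or more, whatever share of single replicates reach that level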
Rev-erbA mod: modulators of Rev-erb alpha DNA binding, primary screen, biochemical, FITC-DNA, fluorescence polarization, uHTS | 370,000 tested, 0.79% active | AID 1259318, 2017 | activity, % at 10 µM | Rev-erbα–FITC-DNA binding, 90 min | Nuclear receptor subfamily 1 group D member 1 (Homo sapiens), P20393;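 active = activity above about 14%, limit read from the data; passing the limit was not always enough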
SMARCA2 act: SMARCA2 (BRM) function activators, primary screen, cell-based, luminescence, high throughput | AID 652017, 2013 | activation, % at 9.1 µM | 370,000 tested, 1% active | MG213 cells, MMTV-luciferase reporter, dexamethasone, overnight; in the data active = activation above about 7.8%
ERp5 inh: inhibitors of ERp5-driven insulin aggregation, primary screen, biochemical, turbidity, absorbance 650 nm, single point | 90 min | AID 651711, 2012 | 350,000 tested, 0.05% active | Protein disulfide-isomerase A6 (Homo sapiens), Q15084 | inhibition, % at 9.99 µM;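 active = mean replicate inhibition above about 25%, with every replicate also reaching it, limit read from the data, passing the limit was not always enough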
Of the large screens only hits and unclear results are named; the others gave an inactive call.

Sequences of proteins named here, by UniProt entry; tags and fusion partners are left off.
Protein disulfide-isomerase (Homo sapiens), P07237, UniProt P07237, whole entry, looked up: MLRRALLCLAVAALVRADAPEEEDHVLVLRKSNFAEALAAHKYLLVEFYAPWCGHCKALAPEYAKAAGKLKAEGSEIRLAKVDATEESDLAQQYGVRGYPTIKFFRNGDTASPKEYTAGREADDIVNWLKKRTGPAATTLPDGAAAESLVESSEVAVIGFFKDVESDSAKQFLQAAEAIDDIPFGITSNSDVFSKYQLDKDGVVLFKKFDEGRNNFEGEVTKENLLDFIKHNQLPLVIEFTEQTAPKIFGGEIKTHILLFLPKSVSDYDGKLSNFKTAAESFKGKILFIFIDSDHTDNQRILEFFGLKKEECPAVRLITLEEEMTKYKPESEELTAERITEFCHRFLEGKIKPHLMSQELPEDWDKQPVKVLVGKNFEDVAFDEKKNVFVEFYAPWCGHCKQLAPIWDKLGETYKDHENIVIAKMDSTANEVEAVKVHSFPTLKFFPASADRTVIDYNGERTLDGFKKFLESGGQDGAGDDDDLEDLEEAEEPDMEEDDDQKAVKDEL
Protein disulfide-isomerase A6 (Homo sapiens), Q15084, UniProt Q15084, whole entry, looked up: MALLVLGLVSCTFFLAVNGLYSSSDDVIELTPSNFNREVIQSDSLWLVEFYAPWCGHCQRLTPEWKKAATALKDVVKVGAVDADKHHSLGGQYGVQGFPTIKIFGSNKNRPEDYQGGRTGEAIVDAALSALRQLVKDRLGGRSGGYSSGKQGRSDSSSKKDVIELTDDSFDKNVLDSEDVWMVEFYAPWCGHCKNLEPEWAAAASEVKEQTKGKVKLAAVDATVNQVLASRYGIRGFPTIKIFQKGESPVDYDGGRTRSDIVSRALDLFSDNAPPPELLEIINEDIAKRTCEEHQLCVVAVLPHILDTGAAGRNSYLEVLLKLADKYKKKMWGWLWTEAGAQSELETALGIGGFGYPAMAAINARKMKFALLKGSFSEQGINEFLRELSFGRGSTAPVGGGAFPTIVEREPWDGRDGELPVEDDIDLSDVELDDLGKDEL

C[C@@H]1CCCCO[C@@H](CN(C)C(=O)Nc2ccc3c(c2)OCO3)[C@H](C)CN([C@H](C)CO)C(=O)c2cc(NC(=O)Nc3ccc(F)cc3)ccc2O1	none (no result: PDI turbidity, Rev-erbA mod, SMARCA2 act)
COc1ccc(C(=O)COC(=O)C2CC3CCCC(C2)C3=O)cc1Br (stereo not drawn)	INS-1E GSIS act 58
COc1cccc(C(=O)COC(=O)C2CC3CCCC(C2)C3=O)c1 (stereo not drawn)	none
COc1ccc(C2=NN(C(C)=O)C(c3cccs3)C2)cc1OC (stereo not drawn)	INS-1E GSIS act 76
COc1ccc(C(C)=O)cc1Cn1cnc2c(cnn2C)c1=O	INS-1E GSIS act 50
COc1cc2c(cc1OC)C(Cc1ccc(O)cc1)N(C)CC2 (stereo not drawn)	INS-1E GSIS act 40
CCOc1ccc(CC2NCCc3cc(OCC)c(OCC)cc32)cc1OCC (stereo not drawn)	none
COc1cc2c(cc1OC)C(Cc1ccc(O)cc1)NCC2 (stereo not drawn)	INS-1E GSIS act 70
C[C@@H]1CCCCO[C@H](CN(C)C(=O)Nc2ccc(F)cc2)[C@@H](C)CN([C@@H](C)CO)C(=O)c2cc(NC(=O)c3ccccc3)ccc2O1	none (no result: PDI turbidity, Rev-erbA mod, SMARCA2 act)
COC(=O)c1ccc(-c2ccc(/C=N/NC(=O)CC3(C)OCCCO3)o2)cc1	SMARCA2 act 7.8
CCCCOC(=O)c1ccc(-c2ccc(/C=N/NC(=S)NCC)o2)cc1	INS-1E GSIS act 159 (no result: Yeast UUG start, ERp5 inh)
CC1(CC(=O)N/N=C/c2ccc(-c3ccc(C(=O)O)cc3)o2)OCCO1	none
C[C@H](CO)N1C[C@H](C)[C@H](CN(C)S(=O)(=O)c2ccc(F)cc2)OCCCC[C@H](C)Oc2ccc(NS(=O)(=O)c3ccc(F)cc3)cc2C1=O	none (no result: PDI turbidity, Rev-erbA mod, SMARCA2 act, ERp5 inh)
COc1cc(-c2nc(-c3ccc(NC(=O)c4ccc5c(c4)OCO5)cc3)no2)cc(OC)c1OC	SMARCA2 act 8.0 (no result: INS-1E GSIS act, ERp5 inh)
CCOC(=O)CSc1nnc(NC(=O)CN2CCCCC2)s1	none
O=C(O)CSc1nnc(NC(=O)CN2CCOCC2)s1	INS-1E GSIS act 96
Cc1ccc(CSCc2ccc(C(=O)NCCCN3CCOCC3)o2)cc1	none
Cc1ccccc1CSCc1ccc(C(=O)NCCCN2CCOCC2)o1	INS-1E GSIS act 46
N#Cc1c(-c2ccccc2)cc(-c2ccc3c(c2)OCO3)[nH]c1=O	none (no result: INS-1E GSIS act)
COc1ccc(-c2cc(-c3ccco3)[nH]c(=O)c2C#N)cc1OC	INS-1E GSIS act 52
COc1ccccc1-c1cn(CC[C@H]2CC[C@@H](NC(=O)C3CC3)[C@H](CO)O2)nn1	none (no result: PDI turbidity, Rev-erbA mod, SMARCA2 act)
CCN(Cc1ccccc1)S(=O)(=O)c1ccc(C(=O)Nc2nnc(C)o2)cc1	INS-1E GSIS act 54
CCc1nnc(NC(=O)c2ccc(S(=O)(=O)N(CC)Cc3ccccc3)cc2)o1	none (no result: INS-1E GSIS act, ERp5 inh)
O=C(N[C@@H]1CC[C@H](CCn2cc(-c3ccccn3)nn2)O[C@@H]1CO)c1cccnc1	none (no result: PDI turbidity, Rev-erbA mod, SMARCA2 act)
C[C@H]1CN([C@@H](C)CO)C(=O)Cc2cc(NC(=O)CCN3CCOCC3)ccc2O[C@@H]1CN(C)S(=O)(=O)c1ccc(F)cc1	none (no result: PDI turbidity, Rev-erbA mod, SMARCA2 act)
COc1ccc(S(=O)(=O)N2CCC(C(N)=O)(N3CCCCC3)CC2)cc1OC	INS-1E GSIS act 71
Cc1ccc(C(C(=O)NC2CCCCC2)N(CCCN2CCOCC2)C(=O)c2snc(C(N)=O)c2N)cc1 (stereo not drawn)	none
CCCCC(C(=O)NCCC(C)C)N(CCCN1CCOCC1)C(=O)c1snc(C(N)=O)c1N (stereo not drawn)	INS-1E GSIS act 54 (no result: ERp5 inh)
CC(C)NC(=O)Nc1ccc2c(c1)C(=O)N([C@@H](C)CO)C[C@H](C)[C@H](CN(C)Cc1ccncc1)O2	none (no result: PDI turbidity, Rev-erbA mod, SMARCA2 act)
COc1cccc(-c2cc(C(F)(F)F)nc(-n3cncn3)n2)c1	INS-1E GSIS act 65 (no result: ERp5 inh)
Fc1ccc(-c2cc(C(F)(F)F)nc(-n3cncn3)n2)cc1	INS-1E GSIS act 52 (no result: Yeast UUG start, ERp5 inh)
COc1ccc(C(=O)Oc2ccc(/C=N/NC(=O)Cc3ccc([N+](=O)[O-])cc3)cc2)cc1	INS-1E GSIS act 46 (no result: Yeast UUG start, ERp5 inh)
COc1ccc(-c2ccc(SCC(=O)c3cccs3)nn2)cc1OC	INS-1E GSIS act 43 (no result: Yeast UUG start)
COc1ccc(-c2cc(C(=O)N3CCCCCC3)no2)cc1OC	INS-1E GSIS act 51
COc1ccc(-c2ccc(SCC(=O)c3ccc(F)cc3)nn2)cc1OC	none
COc1ccc(-c2ccc(SCC(=O)N3CCOCC3)nn2)cc1OC	INS-1E GSIS act 84 (no result: ERp5 inh)
COc1ccc(-c2ccc(SCC(=O)N3CCCC3)nn2)cc1OC	INS-1E GSIS act 81 (no result: ERp5 inh)
CO[C@H]1CC[C@H]2CCN(C)C(=O)C[C@H](c3ccccc3)CN(C)C(=O)c3cccc(C#N)c3OC[C@H]1O2	none (no result: Yeast UUG start, PDI turbidity, Rev-erbA mod, SMARCA2 act)
COc1ccc(C(C)NCCC(c2ccc(OC(C)C)cc2)c2ccccc2OC)cc1 (stereo not drawn)	INS-1E GSIS act 134 (no result: Yeast UUG start)
COc1ccc(C(CCNC(C)c2ccccc2)C(C)C)cc1 (stereo not drawn)	none
COCCCNc1ncnc2c1sc1nc(-c3ccco3)c3c(c12)CC(C)(C)OC3	none (no result: Yeast UUG start)
CC1(C)Cc2c(c(N3CCOCC3)nc3sc4c(NCCN)ncnc4c23)CO1	INS-1E GSIS act 52 (no result: Yeast UUG start)
CC1(C)Cc2c(c(-c3ccco3)nc3sc4c(NCCO)ncnc4c23)CO1	INS-1E GSIS act 88 (no result: Yeast UUG start)
C=CCn1c(SCC(=O)N2CCN(c3ccccc3)CC2)nc2c([nH]c3ccccc32)c1=O	none
C=CCn1c(SCC(=O)N2CCOCC2)nc2c([nH]c3ccccc32)c1=O	INS-1E GSIS act 43
C[C@@H]1CCCCO[C@H](CN(C)C)[C@H](C)CN([C@H](C)CO)C(=O)c2cc(NS(=O)(=O)c3ccc(F)cc3)ccc2O1	none (no result: PDI turbidity, Rev-erbA mod, SMARCA2 act)
C[C@@H]1CN([C@H](C)CO)C(=O)c2cccc(NS(=O)(=O)c3ccc(Cl)cc3)c2O[C@@H]1CN(C)Cc1ccc(C(F)(F)F)cc1	ERp5 inh 28 (no result: PDI turbidity, Rev-erbA mod, SMARCA2 act)
Cc1cc(C(=O)Nc2cccc3c2O[C@@H](CN(C)S(=O)(=O)c2ccc(Cl)cc2)[C@@H](C)CN([C@@H](C)CO)C3=O)n(C)n1	ERp5 inh 26 (no result: PDI turbidity, Rev-erbA mod, SMARCA2 act)
C[C@@H]1CN([C@@H](C)CO)C(=O)c2cccc(NS(=O)(=O)c3ccc(Cl)cc3)c2O[C@H]1CN(C)Cc1ccc(C(F)(F)F)cc1	none (no result: PDI turbidity, Rev-erbA mod, SMARCA2 act)
Cc1noc(C)c1S(=O)(=O)Nc1cccc2c1O[C@H](CN(C)C(=O)Nc1ccc(C(F)(F)F)cc1)[C@H](C)CN([C@@H](C)CO)C2=O	ERp5 inh 63 (no result: PDI turbidity, Rev-erbA mod, SMARCA2 act)
Cc1noc(C)c1S(=O)(=O)Nc1cccc2c1O[C@@H](CN(C)C(=O)Nc1ccc(C(F)(F)F)cc1)[C@@H](C)CN([C@H](C)CO)C2=O	none (no result: PDI turbidity, Rev-erbA mod, SMARCA2 act)
Cc1ccc(C)c(OCC(=O)N/N=C/c2c(C)nn(-c3ccccc3)c2Cl)c1C	INS-1E GSIS act 297 (no result: Yeast UUG start, ERp5 inh)
